In BindingDB's records for 18337104 one finds IC50 data, which are given here for 1 compound.

Chains of the proteins cited; added tags and fusions are not shown. Lines headed by an entry give the natural chain unless they say otherwise; changes in a name come on top.
UniProt P41144: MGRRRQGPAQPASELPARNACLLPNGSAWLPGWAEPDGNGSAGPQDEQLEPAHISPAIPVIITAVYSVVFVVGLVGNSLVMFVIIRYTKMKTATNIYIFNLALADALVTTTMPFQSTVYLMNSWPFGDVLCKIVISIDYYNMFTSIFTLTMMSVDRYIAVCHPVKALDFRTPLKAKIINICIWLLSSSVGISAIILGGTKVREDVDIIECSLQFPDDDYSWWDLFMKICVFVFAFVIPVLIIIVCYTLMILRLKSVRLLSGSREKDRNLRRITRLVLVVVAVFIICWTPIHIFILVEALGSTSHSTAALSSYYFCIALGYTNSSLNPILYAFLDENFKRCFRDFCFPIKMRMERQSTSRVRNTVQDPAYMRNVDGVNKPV

The target of this experiment is Kappa-type opioid receptor (Cavia porcellus, UniProt P41144). The experiment in a line: Displacement of [3H]U69593 from kappa opioid receptor in guinea pig cerebellum.

With `CN(C(=O)Cc1ccc(Cl)c(Cl)c1)[C@@H]1CCCC[C@H]1N1CCCC1`, the half-inhibitory concentration (IC50) worked out at 1.14 nM.
